Results taken from patent US10112926B2 (priority 2014, dated 2018).

By UniProt entry, the sequences of proteins in these tests, tags left out. Where a name states a change or a piece, a line headed by the entry shows the natural chain unless it says otherwise.
UniProt P42338: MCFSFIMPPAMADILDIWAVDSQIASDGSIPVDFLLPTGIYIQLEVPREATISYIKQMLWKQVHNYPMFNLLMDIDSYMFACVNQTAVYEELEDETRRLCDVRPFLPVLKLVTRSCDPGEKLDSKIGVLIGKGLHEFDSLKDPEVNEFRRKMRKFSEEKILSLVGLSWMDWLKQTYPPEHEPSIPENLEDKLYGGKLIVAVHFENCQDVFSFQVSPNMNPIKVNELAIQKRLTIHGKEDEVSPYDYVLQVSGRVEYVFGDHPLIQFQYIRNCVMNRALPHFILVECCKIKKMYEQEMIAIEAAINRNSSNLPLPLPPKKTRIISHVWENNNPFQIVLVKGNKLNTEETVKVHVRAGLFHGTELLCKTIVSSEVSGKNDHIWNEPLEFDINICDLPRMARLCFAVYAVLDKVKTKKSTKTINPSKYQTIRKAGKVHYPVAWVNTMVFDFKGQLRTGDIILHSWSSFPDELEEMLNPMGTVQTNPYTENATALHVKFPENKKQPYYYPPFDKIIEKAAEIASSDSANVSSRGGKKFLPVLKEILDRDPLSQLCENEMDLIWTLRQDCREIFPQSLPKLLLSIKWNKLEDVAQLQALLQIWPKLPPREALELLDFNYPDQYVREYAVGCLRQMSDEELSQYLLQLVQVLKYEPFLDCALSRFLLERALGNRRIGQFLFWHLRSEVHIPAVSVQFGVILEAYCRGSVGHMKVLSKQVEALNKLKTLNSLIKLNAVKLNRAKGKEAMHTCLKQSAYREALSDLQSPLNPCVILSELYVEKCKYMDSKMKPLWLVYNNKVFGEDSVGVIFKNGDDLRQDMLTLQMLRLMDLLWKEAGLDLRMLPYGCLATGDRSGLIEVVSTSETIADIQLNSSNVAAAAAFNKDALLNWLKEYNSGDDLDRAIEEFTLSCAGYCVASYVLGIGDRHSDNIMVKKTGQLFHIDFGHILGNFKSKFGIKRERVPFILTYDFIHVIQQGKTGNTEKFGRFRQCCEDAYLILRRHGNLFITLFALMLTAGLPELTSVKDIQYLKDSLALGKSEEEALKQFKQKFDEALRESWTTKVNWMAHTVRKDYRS
UniProt Q8NEB9, whole entry: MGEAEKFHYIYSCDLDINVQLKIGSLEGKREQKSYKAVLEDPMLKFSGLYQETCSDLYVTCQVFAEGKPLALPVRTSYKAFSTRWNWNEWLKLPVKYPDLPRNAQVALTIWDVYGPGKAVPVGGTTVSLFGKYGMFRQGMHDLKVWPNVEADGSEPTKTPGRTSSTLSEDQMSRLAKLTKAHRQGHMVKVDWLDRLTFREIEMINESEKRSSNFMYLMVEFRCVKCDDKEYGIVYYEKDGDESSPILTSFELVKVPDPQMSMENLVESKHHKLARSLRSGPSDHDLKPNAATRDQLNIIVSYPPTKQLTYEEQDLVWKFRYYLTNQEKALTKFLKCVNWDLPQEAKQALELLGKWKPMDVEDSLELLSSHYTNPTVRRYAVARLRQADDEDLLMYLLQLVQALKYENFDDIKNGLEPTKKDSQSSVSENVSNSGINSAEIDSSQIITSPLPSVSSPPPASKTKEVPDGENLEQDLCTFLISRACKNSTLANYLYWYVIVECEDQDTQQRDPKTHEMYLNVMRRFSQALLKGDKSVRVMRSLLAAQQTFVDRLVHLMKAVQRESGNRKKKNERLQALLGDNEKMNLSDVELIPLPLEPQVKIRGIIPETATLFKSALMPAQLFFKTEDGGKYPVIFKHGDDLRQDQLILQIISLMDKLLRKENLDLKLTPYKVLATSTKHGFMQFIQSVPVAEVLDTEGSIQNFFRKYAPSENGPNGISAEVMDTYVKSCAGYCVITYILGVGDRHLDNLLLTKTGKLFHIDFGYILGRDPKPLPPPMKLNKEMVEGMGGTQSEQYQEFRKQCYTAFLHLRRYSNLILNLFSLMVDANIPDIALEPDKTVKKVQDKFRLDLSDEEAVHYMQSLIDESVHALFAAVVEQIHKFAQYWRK
UniProt P42336, whole entry, looked up: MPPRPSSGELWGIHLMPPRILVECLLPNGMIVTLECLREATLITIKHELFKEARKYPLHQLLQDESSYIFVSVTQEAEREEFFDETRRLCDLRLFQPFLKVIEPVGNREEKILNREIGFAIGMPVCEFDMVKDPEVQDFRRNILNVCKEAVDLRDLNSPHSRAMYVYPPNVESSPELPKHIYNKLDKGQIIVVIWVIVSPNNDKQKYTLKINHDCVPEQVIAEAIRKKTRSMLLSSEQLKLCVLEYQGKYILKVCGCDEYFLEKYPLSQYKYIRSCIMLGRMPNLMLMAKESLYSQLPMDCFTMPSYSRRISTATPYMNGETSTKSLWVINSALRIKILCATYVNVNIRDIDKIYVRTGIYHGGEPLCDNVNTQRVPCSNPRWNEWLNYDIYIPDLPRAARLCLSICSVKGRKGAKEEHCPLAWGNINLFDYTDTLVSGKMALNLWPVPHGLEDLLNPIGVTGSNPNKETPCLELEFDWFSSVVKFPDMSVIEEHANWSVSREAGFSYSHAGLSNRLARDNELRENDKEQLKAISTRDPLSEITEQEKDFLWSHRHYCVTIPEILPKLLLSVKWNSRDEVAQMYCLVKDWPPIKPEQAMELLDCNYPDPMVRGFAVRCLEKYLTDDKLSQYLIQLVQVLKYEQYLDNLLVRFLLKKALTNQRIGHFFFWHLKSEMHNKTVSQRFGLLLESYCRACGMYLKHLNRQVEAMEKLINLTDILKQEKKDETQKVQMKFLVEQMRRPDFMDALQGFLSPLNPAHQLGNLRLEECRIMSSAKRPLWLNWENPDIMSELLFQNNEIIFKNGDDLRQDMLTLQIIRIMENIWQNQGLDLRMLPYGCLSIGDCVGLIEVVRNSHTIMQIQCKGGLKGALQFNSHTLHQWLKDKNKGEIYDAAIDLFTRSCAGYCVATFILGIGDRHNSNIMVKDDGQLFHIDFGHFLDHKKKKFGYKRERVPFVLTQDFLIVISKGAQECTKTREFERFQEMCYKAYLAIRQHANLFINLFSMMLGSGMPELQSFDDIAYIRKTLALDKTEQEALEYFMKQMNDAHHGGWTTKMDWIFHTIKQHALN
UniProt Q9UBF8: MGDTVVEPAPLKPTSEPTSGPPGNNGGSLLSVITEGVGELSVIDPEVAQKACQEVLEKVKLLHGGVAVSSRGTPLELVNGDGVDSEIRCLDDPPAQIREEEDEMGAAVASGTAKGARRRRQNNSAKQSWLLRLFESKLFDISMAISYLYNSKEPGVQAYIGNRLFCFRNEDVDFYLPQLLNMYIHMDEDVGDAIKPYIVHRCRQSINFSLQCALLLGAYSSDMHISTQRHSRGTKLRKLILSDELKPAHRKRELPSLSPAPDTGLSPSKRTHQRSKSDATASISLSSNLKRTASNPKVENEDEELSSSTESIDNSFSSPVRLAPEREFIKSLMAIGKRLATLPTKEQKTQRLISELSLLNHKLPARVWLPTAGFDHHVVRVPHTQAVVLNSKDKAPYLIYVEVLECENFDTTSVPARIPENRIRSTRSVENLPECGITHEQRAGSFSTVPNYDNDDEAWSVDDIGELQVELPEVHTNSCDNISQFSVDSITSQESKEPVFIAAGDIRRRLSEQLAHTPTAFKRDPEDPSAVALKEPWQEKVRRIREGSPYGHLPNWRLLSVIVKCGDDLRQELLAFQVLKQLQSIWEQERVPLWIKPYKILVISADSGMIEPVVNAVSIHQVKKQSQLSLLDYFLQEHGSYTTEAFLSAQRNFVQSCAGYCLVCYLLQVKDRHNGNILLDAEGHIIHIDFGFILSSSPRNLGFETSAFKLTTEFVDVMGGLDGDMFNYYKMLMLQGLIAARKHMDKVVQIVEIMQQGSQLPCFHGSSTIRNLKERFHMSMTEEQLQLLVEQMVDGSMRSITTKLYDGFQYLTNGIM
UniProt P48736: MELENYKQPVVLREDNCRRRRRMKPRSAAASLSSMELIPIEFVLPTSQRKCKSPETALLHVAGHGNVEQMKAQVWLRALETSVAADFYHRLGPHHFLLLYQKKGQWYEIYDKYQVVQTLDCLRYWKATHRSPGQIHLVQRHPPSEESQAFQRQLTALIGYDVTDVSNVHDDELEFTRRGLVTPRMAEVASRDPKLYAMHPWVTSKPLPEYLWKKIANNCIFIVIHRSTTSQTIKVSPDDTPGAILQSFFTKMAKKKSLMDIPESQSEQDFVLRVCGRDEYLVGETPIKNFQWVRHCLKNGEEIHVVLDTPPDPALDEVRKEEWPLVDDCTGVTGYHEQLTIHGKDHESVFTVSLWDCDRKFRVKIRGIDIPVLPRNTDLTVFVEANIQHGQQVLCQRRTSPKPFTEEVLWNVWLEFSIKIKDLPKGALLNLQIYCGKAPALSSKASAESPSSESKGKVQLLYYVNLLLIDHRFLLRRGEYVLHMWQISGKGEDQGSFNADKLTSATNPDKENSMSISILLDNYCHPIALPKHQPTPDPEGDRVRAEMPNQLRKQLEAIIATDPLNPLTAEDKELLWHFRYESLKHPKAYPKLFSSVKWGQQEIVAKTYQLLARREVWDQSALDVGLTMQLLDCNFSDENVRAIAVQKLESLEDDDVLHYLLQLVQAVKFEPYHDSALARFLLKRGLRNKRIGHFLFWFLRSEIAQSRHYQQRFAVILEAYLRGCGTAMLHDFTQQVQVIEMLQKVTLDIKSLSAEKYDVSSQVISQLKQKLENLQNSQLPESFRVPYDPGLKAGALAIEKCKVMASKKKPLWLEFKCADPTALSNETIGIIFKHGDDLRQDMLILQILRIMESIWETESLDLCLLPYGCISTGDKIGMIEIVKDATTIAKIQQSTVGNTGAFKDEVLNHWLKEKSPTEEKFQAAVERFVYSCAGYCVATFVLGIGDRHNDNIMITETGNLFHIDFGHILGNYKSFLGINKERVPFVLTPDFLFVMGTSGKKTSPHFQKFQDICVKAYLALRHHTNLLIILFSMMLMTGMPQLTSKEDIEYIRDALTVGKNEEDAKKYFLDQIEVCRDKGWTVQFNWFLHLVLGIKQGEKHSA
UniProt O00329: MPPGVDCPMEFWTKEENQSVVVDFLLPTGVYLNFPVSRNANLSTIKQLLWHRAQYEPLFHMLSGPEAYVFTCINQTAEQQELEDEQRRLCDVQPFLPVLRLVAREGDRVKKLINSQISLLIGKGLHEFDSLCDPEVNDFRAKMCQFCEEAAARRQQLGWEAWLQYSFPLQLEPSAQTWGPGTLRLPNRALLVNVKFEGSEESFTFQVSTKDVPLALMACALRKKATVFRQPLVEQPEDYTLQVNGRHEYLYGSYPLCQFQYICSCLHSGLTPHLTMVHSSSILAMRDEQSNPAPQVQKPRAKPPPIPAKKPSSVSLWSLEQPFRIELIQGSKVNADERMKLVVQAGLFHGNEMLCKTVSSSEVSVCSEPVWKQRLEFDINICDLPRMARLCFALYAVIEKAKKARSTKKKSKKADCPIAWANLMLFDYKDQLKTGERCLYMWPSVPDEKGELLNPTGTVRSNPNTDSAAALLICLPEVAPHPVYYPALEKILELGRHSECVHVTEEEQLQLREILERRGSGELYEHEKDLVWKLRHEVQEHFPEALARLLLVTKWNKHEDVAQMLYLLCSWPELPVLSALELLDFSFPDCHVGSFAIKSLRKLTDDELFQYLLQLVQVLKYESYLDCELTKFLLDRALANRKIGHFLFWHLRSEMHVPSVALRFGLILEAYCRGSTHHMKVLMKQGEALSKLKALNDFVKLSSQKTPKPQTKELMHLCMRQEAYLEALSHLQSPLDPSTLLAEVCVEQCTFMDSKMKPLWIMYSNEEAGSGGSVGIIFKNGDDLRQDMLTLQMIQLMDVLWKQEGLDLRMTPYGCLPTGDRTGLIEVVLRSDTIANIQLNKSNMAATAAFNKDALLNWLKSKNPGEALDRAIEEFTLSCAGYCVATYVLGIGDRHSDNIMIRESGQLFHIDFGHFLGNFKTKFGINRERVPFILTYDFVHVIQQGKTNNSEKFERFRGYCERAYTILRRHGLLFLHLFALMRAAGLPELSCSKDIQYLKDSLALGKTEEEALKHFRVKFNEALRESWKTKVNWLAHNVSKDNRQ

Assays:
PI 3-kinase beta [1] = molecular target: T1, PI 3-kinase beta (Homo sapiens (Human), UniProt P42338); assay: biochemical; settings: Assay B PI3Kβ IC50 (μM)
Vps34 [2] = molecular target: T2, Vps34 (Homo sapiens (Human), UniProt Q8NEB9); settings: read-out: Assay C VPS34 IC50
PI 3-kinase alpha = PI 3-kinase alpha (Homo sapiens (Human), UniProt P42336)
[3] = molecular target: PI 3-kinase alpha (Rat-1 pBABEpuro Myr-HA-hp110 alpha cells) (Homo sapiens (Human), UniProt P42336); assay: cell-based
[4] = molecular target: T3, PI 3-kinase beta (Rat-1 pBABEpuro Myr-HA-hp110 beta cells) (Homo sapiens (Human), UniProt P42338); settings: read-out: Assay I PI3Kβ IC50
PI 4-kinase beta = PI 4-kinase beta (Homo sapiens (Human), UniProt Q9UBF8); assay: biochemical
[5] = molecular target: T4, PI 3-kinase gamma (U937 cells, MIP1α-stimulated AKT phosphorylation) (Homo sapiens (Human), UniProt P48736); settings: read-out: Assay K1 PI3Kγ
[6] = molecular target: T3, PI 3-kinase beta (Rat-1 pBABEpuro Myr-HA-hp110 beta cells); assay: cell-based; settings: Assay I PI3Kβ
[7] = molecular target: T4, PI 3-kinase gamma (U937 cells, MIP1α-stimulated AKT phosphorylation); settings: read-out: Assay K2 PI3Kγ
PI 3-kinase beta [8] = molecular target: T1, PI 3-kinase beta; settings: read-out: Assay B PI3Kβ
Vps34 [9] = molecular target: T2, Vps34; assay: biochemical
PI 3-kinase delta = PI 3-kinase delta (Homo sapiens (Human), UniProt O00329)
PI 3-kinase gamma = PI 3-kinase gamma (Homo sapiens (Human), UniProt P48736); settings: read-out: Assay E PI3Kγ
[10] = molecular target: T3, PI 3-kinase beta (Rat-1 pBABEpuro Myr-HA-hp110 beta cells); assay: cell-based
[11] = molecular target: PI 3-kinase delta (Rat-1 pBABEpuro Myr-HA-hp110 delta cells) (Homo sapiens (Human), UniProt O00329); assay: cell-based
[12] = molecular target: T4, PI 3-kinase gamma (U937 cells, MIP1α-stimulated AKT phosphorylation); assay: cell-based

Compound: Cc1cc(-c2cc(-c3cc(S(=O)(=O)NCC4CCCOC4)ccc3C)cnc2N)on1 (single isomer, unassigned) [Example 23b, (R or S)-3-(6-amino-5-(3-methylisoxazol-5-yl)pyridin-3-yl)-4-methyl-N-((tetrahydro-2H-pyran-3-yl)methyl)benzenesulfonamide]
- IC50 (PI 3-kinase beta [1]): 1.2 µM
- IC50 (Vps34 [2]): > 10000 nM
- IC50 (PI 3-kinase alpha; read-out: Assay A PI3Kα IC50): 260 nM
- IC50 ([3]; Assay H PI3Kα IC50): 3170 nM
- IC50 [4]: > 3000 nM
- IC50 (PI 4-kinase beta; Assay D PI4Kβ IC50 (μM)): 3 µM

Compound: COCCNS(=O)(=O)c1cccc(-c2cnc(N)c(C(=O)c3cccnc3)n2)c1 [(iv), reference compound]
- IC50 [5]: 128 nM
- IC50 [6]: 3960 nM
- IC50 (PI 3-kinase alpha; read-out: Assay A PI3Kα): 490 nM
- IC50 [7]: 264 nM
- IC50 (PI 3-kinase beta [8]): 1270 nM
- IC50 ([3]; Assay H PI3Kα): 930 nM
- IC50 (PI 4-kinase beta; Assay D PI4Kβ): 3.76 µM
- IC50 (Vps34 [9]): 1760 nM
- IC50 (PI 3-kinase delta; read-out: Assay F PI3Kδ): 1500 nM
- IC50 (PI 3-kinase gamma): 60 nM

Compound: Cc1nc(N)ncc1-c1ccc(Cl)c(S(=O)(=O)NCCO)c1 [(xii), reference compound]
- IC50 (PI 3-kinase alpha; read-out: Assay A PI3Kα): 3320 nM
- IC50 (PI 3-kinase beta [8]): 1190 nM
- IC50 [10]: 4370 nM
- IC50 (PI 3-kinase delta; read-out: Assay F PI3Kδ): 6010 nM
- IC50 [11]: 5550 nM
- IC50 (PI 3-kinase gamma): 753 nM

Compound: Cc1cc(-c2cc(-c3cc(S(=O)(=O)NC[C@@H]4CCCO4)ccc3C)cnc2N)on1 [Example 40, (S)-3-(6-Amino-5-(3-methylisoxazol-5-yl)pyridin-3-yl)-4-methyl-N-((tetrahydrofuran-2-yl)methyl)benzenesulfonamide]
- IC50 [12]: 457 nM
- IC50 (PI 3-kinase delta; read-out: Assay F PI3Kδ IC50): 380 nM

Where two headings read alike, the source gives them in different places.
